Experimental findings from patent US20260384421A1, “NOVEL COMPOUNDS THAT CAN BE USED AS THERAPEUTIC AGENTS” (published 2026) are described below.

Assay [1] relates to MDA-MB-231 cells. The experiment in a line: alamarBlue proliferation assay with MDA-MB-231 cells (glucose-free Leibovitz's L-15 medium).
The subject of assay [2] is HEP-G2 cells. The assay is described as follows: alamarBlue proliferation assay with HEP-G2 cells. The settings on record: read-out: Activity on HEP-G2: IC50, RPMI 1640 medium, 10% FBS. (The colour change of resazurin is a common sign of viable cells or microbes.)
For assay [3], the system named is AMPK (Thr172 phosphorylation) in HEP-G2 cells. The assay is described as follows: AMPK activation assay on HEP-G2 cells (Thr172 phosphorylation, western blot). The settings on record: 10 nM, 20 hours, Thr172 phosphorylation relative to DMSO control. The protocol: AMPK activation can be assessed by the levels of AMPK phosphorylation at Thr172. The APMK activating activities of compounds falling under general formula (I) were investigated by western blotting on different cancer cell lines. Access and cultivation of the respective cell lines are as described above. To this end, A-549, HEP-G2, and HCT-116 cells were seeded into 6-well culture plates (Cyto-One®, #CC7682-7506) in a total volume of 2 mL at a density to achieve 80% confluency by 48 hours and incubated over night at 37 °C and 5% CO2. Cells were treated at a confluency of around 50% with compounds at indicated final concentration by adding 2 μL per well of a 1000× compound DMSO stock-solution. Cells were incubated for 20 hours at 37 °C and 5% CO2. Then, cells were lysed in RIPA buffer (Pierce™ RIPA Buffer, FisherScientific, #89900) supplemented with 1× cOmplete™ Mini Protease Inhibitor Cocktail (Roche, #11836153001) and 1 mM Sodium Orthovanadate (Na3VO3, FisherScientific, #J60191) and lysates were subjected to standard western blotting procedure. Protein concentration of the samples was determined by BCA assay and samples were normalized to achieve equal protein concentration. 4× Laemmli Sample Buffer (Bio-Rad, #1610747) was supplemented with 200 μM DTT (Sigma Aldrich-Merck, #D9779) and added to the samples to achieve a final concentration of 1× Laemmli/50 μM DTT by diluting lysate samples with supplemented Laemmli buffer 1:4. Samples were then incubated at 95 °C for 5 min in a Thermomixer (Eppendorf). SDS-PAGE was performed in 1× Tris/Glycine/SDS buffer (TGS, Bio-Rad, #1610772) using 4-15% gradient polyacrylamide gels (4-15% Mini-PROTEAN® TGX Stain-Free™ Gel, Bio-Rad, #456-8084). Proteins were transferred onto 0.2 μm PVDF membranes using the semi-dry Trans-Blot® Turbo™ transfer system (Trans-Blot® Turbo™, Bio-Rad, #170-4150) with prepacked Trans-Blot® Turbo™ transfer packs (Bio-Rad, #170-4156). Immunodetection of AMPK, pAMPK (Thr172), and β-Actin was performed using the following primary antibodies: AMPKα (F6) Mouse mAb (Cell Signaling Technologies, #2793) for AMPK, Phospho-AMPKα (Thr172) (40H9) Rabbit mAb (Cell Signaling Technologies, #2535) for pAMPK (Thr172), and Purified anti-β-actin Antibody (Rat monoclonal, W16197A) (Cell Signaling Technologies, #664802) for β-Actin. HRP-linked secondary antibodies in 5% nonfat dried milk (AppliChem, #A0830) in 1×TBS containing 0.1% Tween-20 were used for the corresponding species mouse, rabbit and rat (Cell Signaling Technologies, #7076, #7074, #7077), respectively. Signals were developed with chemiluminescence substrate (SuperSignal™ West Pico PLUS, Fisher Scientific, #34577) and detected with the ChemiDoc™ MP imaging system (ChemiDoc™ MP, Bio-Rad, #12003154). Chemiluminescence signals of phosphorylation, total protein and loading control were quantified by densitometry using the image analysis software Image Lab™ (version 6.0.1, Bio-Rad). The corresponding lysates from DMSO treated cells were included on each membrane as the base line control for blot-internal signal normalization. The standard deviation of signal intensities of the loading control-Actin within each blot was 16% or lower confirming equal loading of protein amounts.
For each condition, the ratio of phosphorylation to corresponding total protein was calculated from the signal intensities. The ratios were then normalized to the corresponding ratio of the DMSO control to yield the fold-change values of phosphorylation.
In the following embodiments, a compound is considered as an AMPK activator if the fold-change value of phosphorylation is 1.5 or higher, preferably 2.0 or higher, and more preferably 2.5 or higher as determined with the method described above.
Background: In western blotting, separated proteins are transferred to a membrane and probed.

Assay [4] concerns HPEKp cells. The assay is described as follows: proliferation assay with human epidermal keratinocyte progenitors (HPEKp), selectivity versus MDA-MB-231. The settings on record: read-out: Activity (HPEK): antiproliferative activity on HPEK cells, IC50 category; HPEK cells cultivated in CnT-Prime medium.
Assay [5] has as its system A-431 cells. The assay is described as follows: alamarBlue proliferation assay with A-431 cells. The conditions noted are these: read-out: Activity on A-431: IC50, DMEM medium, 10% FBS.
In assay [6] the test system is 23132/87 cells. The assay is described as follows: alamarBlue proliferation assay with 23132/87 cells. The settings on record: read-out: Activity on 23132/87: IC50, RPMI 1640 medium, 10% FBS. The text has this:
(§1) These hyperproliferative processes can be benign or malignant and include hyperplasia, neoplasia, cancer and pre-cancerous lesions, and metastases. The antiproliferative activities of compounds falling under general formula (I) were investigated on human primary epidermal keratinocytes (HPEK) and human, murine and canine cell lines derived from hyperproliferative tissue or different cancer types, including MDA-MB-231, ZR-75-30, HCC-1395, HCC-1937, and T-47D all originating from cancer of the breast, JURKAT, RPMI-8402, LOUCY, TANQUE, REC-1, HL-60, NB-4 all originating from different types of blood cancer including lymphoma and leukemia of T-cells, B-cells and myeloid cells, TT originating from cancer of the neuroendocrine system, HeLa originating from cancer of the cervix, 23132/87, SW-948, and HCT-116 all originating from cancer of the gastrointestinal tract including stomach and colon, BHY originating from cancer of the mucosal epithelium, A-431 originating from cancer of the skin, HEP-G2 originating from cancer of the liver, NCI-H460 and A-549 both originating from cancer of the lung, PANC-1 originating from cancer of the pancreas, U-87 MG originating from cancer of the brain, A-375 and RVH-421 both originating from cancer of melanocytes, SW-1353 originating from cancer of bone-derived chondrocytes, C2C12 a mouse cell line originating from hyperproliferative muscle progenitor cells, LL/2 a mouse cell line originating from cancer of the lung, CF21.T a dog cell line originating from cancer of the connective tissue. To this end, according cells were seeded into 96-well plates (CORNING #3598) suitable for fluorescence assays at following initial cell numbers: 1000 cells per well for HPEK; 3000 cells per well for MDA-MB-231, 8000 cells per well for ZR-75-30, 1500 cells per well for HCC-1395, 1500 cells per well for HCC-1937, 3000 cells per well for T-47D, 1500 cells per well for JURKAT, 5000 cells per well for RPMI-8402, 9000 cells per well for LOUCY, 1500 cells per well for TANQUE, 9000 cells per well for REC-1, 1000 cells per well for HL-60, 1000 cells per well for NB-4, 9000 cells per well for TT, 2000 cells per well for HeLa, 2000 cells per well for 23132/87, 9000 cells per well for SW-948, 700 cells per well for HCT-116, 1500 cells per well for BHY, 700 cells per well for A-431, 1500 cells per well for HEP-G2, 500 cells per well for NCI-H460, 1000 cells per well for A-549, 1500 cells per well for PANC-1, 2500 cells per well for U-87 MG, 700 cells per well for A-375, 1500 cells per well for RVH-421, 2000 cells per well for SW-1353, 500 cells per well for C2C12, 500 cells per well for LL/2, and 3000 cells per well for CF21.T. In a volume of 90 μL per well of culture medium the cells were treated with compounds at indicated final concentrations by adding 10 μL per well of 10× compound working solutions from 1:100 pre-diluted 1000× compound DMSO stock-solutions in H2O (Water For Injection, WFI, Fisher Scientific, Gibco™ #A12873) or with the empty carrier DMSO (AppliChem, #A3672) at 0.1% v/v as control yielding a final volume of 100 μL per well. At day 5 after starting the treatments the cells were subjected to the alamarBlue® Proliferation Assay (Bio-Rad Serotec GmbH, BUF012B) according to the protocol of the manufacturer. The readout was taken with a multi-well plate-reader (Tecan Spark®) in the fluorescence mode with applying a filter for excitation at 560 nm (band width 10 nm) and for emission at 590 nm (band width 10 nm). Treatment for maximum proliferation inhibition with the commercial cytotoxic compound (S)-(+)-camptothecin (Fluorochem #M01564) at a concentration of 10 μM was included on each plate for assay quality control. Some of the test compounds of the present invention may have been obtained and applied as their salt forms.
(§2) The assays were performed in duplicate or more replicates of independent single experiments each containing a three- to six-fold replicate for every condition. […]

Assay [7] concerns A-549 cells. The assay is described as follows: alamarBlue proliferation assay with A-549 cells. The conditions noted are these: read-out: Activity on A-549: IC50, DMEM medium, 10% FBS.
Assay [8] deals with HCC-1395 cells. The assay is described as follows: alamarBlue proliferation assay with HCC-1395 cells. The settings on record: read-out: Activity on HCC-1395 (IC50), day 5.
Description: as §1, §2

Assay [9] has as its system NCI-H460 cells. The experiment in a line: alamarBlue proliferation assay with NCI-H460 cells. The settings on record: read-out: Activity on NCI-H460: IC50, RPMI 1640 medium, 10% FBS.
Where [10] appears, read: read-out: Activity (MDA): antiproliferative activity on MDA-MB-231 cells, IC50 category, MDA-MB-231 cells cultivated in glucose-free Leibovitz's L-15 medium.
[11] abbreviates: read-out: Activity on MDA-MB-231 (IC50), glucose-free Leibovitz's L-15, 10% FBS, day 5, alamarBlue.

Molecules are shown by their SMILES. pIC50: −log10 of the molar value. Read-outs that look alike come from different tables or passages of the source.

In the case of `O=Cc1cc(C2CCC3(CC2)OCCO3)ccc1Oc1ccc(C(=O)N2CCN(Cc3ccc4ccccc4c3)CC2)cc1`, the pIC50 was greater than 6.00 in assay [1] (setting [10]); no less than 6.70 in [1] (setting [11]); no less than 6.70 in assay [2]; greater than 5.30 in [4]; no less than 6.70 in assay [5]. Moreover, the “Fold-change AMPK activation” value in [3] is no less than 1.5.
In the case of `O=Cc1cc(C2CCC3(CC2)OCCO3)ccc1Oc1ccc(C(=O)N2CCN(C(=O)c3ccccc3)CC2)cc1`, the pIC50 in assay [6], in assay [1] (setting [11]), in assay [2] and in assay [7] was no less than 5.30 throughout.
Consider `O=Cc1cc(C2CCC3(CC2)OCCO3)ccc1Oc1ccc(C(=O)N2CCN(Cc3ccc(Cl)cc3)C3CCCCC32)cc1` (centres unmarked), for which the pIC50 in assay [6], in assay [1] (setting [11]), in [2] and in assay [7] was no less than 5.30 throughout.
Regarding `COC1CCC(c2ccc(Oc3ccc(C(=O)N4CCN(Cc5ccc(S(F)(F)(F)(F)F)cc5)CC4)cc3)c(O)c2)CC1` (centres unmarked), the pIC50 in [6] is no less than 5.30; in assay [2] it was no less than 6.70; in [7], no less than 6.70. For the same molecule, the “Fold-change AMPK activation” value in assay [3] is recorded as no less than 2.5.
For `COc1ccc(CN2CC3(C2)CN(C(=O)c2ccc(Oc4ccc(C5CCCCC5)cc4CO)cn2)C3)cc1`, the pIC50 in [6], in assay [1] (setting [11]), in assay [2] and in [7] was no less than 5.30 each time.
Take `O=Cc1cc(C2CCC3(CC2)OCCO3)ccc1Oc1ccc(C(=O)N2CCN(Cc3cccnc3)CC2)cc1`: the pIC50 is no less than 6.00 in [1] (setting [11]), no less than 5.30 in assay [2], no less than 5.30 in assay [8] and no less than 5.30 in assay [5].
As to `O=Cc1cc(C2CCC3(CC2)OCCO3)ccc1Oc1ccc(C(=O)N2CCN(Cc3cccc4cccnc34)CC2)cc1`, the pIC50 was no less than 6.70 in assay [1] (setting [11]), no less than 5.30 in assay [2], no less than 4.70 in assay [8] and no less than 5.30 in assay [5].
Take `COc1cc(C2CCCCC2)cc(C=O)c1Oc1ccc(C(=O)N2CCN(Cc3ccccc3)CC2)cc1`: the pIC50 in assay [1] (setting [11]) is no less than 5.30; in [2] it was no less than 4.70; in assay [8], no less than 4.70; in assay [5], no less than 4.70.
Consider `COc1ccc(CN2CCN(C(=O)c3ccc(Oc4ccc(C5CCC6(CC5)OCCO6)cc4C=O)cc3)CC2)cc1`, for which the pIC50 in assay [1] (setting [11]) was no less than 6.70; in assay [2], no less than 6.70; in [8], no less than 5.30; in [5], no less than 6.70.
`O=Cc1cc(C2CCC3(CC2)OCCO3)ccc1Oc1ccc(C(=O)N2CCN(CC3CCCC3)CC2)cc1`: the pIC50 in assay [1] (setting [11]) was no less than 5.30; in assay [2], no less than 4.70; in assay [8], no less than 4.70; in assay [5], no less than 5.30.
`O=Cc1cc(C2CCC3(CC2)OCCO3)ccc1Oc1ccc(C(=O)N2CCN(Cc3ccc(Cl)cc3)CC2)cc1`: the pIC50 in assay [1] (setting [10]) was greater than 6.00; in assay [1] (setting [11]), no less than 6.70; in [2], no less than 6.00; in assay [9] it was no less than 6.70; in [4], greater than 5.30; in assay [8], no less than 4.70. Moreover, in [5], the pIC50 was no less than 6.00.
On to `CCOC(=O)CN1CCN(C(=O)c2ccc(Oc3ccc(C4CCC5(CC4)OCCO5)cc3C=O)cc2)CC1=O`, for which the pIC50 in assay [1] (setting [11]) is no less than 5.30; in [2], no less than 6.00; in assay [8], no less than 5.30; in assay [5], no less than 5.30.
